In patent US9150578B2, “5,8-dihydro-6H-pyrazolo[3,4-h]quinazolines as IGF-1R/IR inhibitors” (Boehringer Ingelheim International GmbH, priority 2012, dated 2015):

Each compound was assayed on TC-71 (Ewing's sarcoma) cells (assay: Cell proliferation assay, TC-71 (Alamar Blue)). Settings: TC-71 cells, 72 h, read-out: TC71 EC50 range.
Assay type: cell-based
Procedure: Cell Proliferation Assays
Published scientific data has described that interference with the Insulin-like Growth Factor-1 Receptor (IGF-1R) signaling pathway reduces the proliferation of TC-71 cells. Therefore TC-71 cells served as a positive control cell line for monitoring the activity of compounds against IGF-1R-mediated cell proliferation.
2000 TC-71 cells or 1000 HCT 116 cells were seeded per well in 180 μL IMDM+10% foetal calf serum (FCS)+penicillin/streptomycin into 96-well microtitre plates. The plates were placed in a cell culture incubator (37° C. in a humidified atmosphere of 95% […]/5 CO2) overnight. The following day, serial dilutions of compounds, prepared in duplicates, were transferred onto the cell layers (controls without compound). The cells were cultivated for a further 72 h in the cell culture incubator. 20 μL of Alamar Blue™ (Serotec Ltd, Düsseldorf, Germany) was added to each well and the plates incubated for 7 h in the cell culture incubator.
CCCn1cc(-c2ccc(-c3c4c(nn3C)CCc3cnc(Nc5ccc(C(=O)O)cc5OC)nc3-4)cc2)cn1 [I-128] was tested, and the EC50 was less than 10 nM.
For CNC(=O)c1ccc(Nc2ncc3c(n2)-c2c(nn(C)c2-c2ccc(-c4cnn(C)c4)cc2)CC3)c(OC)c1 [I-130], the EC50 was less than 10 nM.
COc1cc(C(=O)N(C)C)ccc1Nc1ncc2c(n1)-c1c(nn(C)c1-c1ccc(-c3cnn(C)c3)cc1)CC2 [I-131] was tested, and the EC50 was less than 10 nM.
Compound COc1cc(C(=O)NC2CCN(C)CC2)ccc1Nc1ncc2c(n1)-c1c(nn(C)c1-c1ccc(-c3cnn(C)c3)cc1)CC2 [I-133] has an EC50 of less than 10 nM.
For COc1cc(C(=O)NCCN(C)C)ccc1Nc1ncc2c(n1)-c1c(nn(C)c1-c1ccc(-c3cnn(C)c3)cc1)CC2 [I-134], the EC50 was less than 10 nM.
For COCCN1CCC(NC(=O)c2ccc(Nc3ncc4c(n3)-c3c(nn(C)c3-c3ccc(-c5cnn(C)c5)cc3)CC4)c(OC)c2)CC1 [I-135], the EC50 was less than 10 nM.
For COc1cc(C(=O)NCCCN(C)C)ccc1Nc1ncc2c(n1)-c1c(nn(C)c1-c1ccc(-c3cnn(C)c3)cc1)CC2 [I-136], the EC50 was less than 10 nM.
CN(C)CCNC(=O)Cn1ccc(Nc2ncc3c(n2)-c2c(nn(C)c2-c2ccc(-c4cnn(C)c4)cc2)CC3)n1 [I-137] gave an EC50 of 10 to 100 nM.
Compound CNC(=O)Cn1ccc(Nc2ncc3c(n2)-c2c(nn(C)c2-c2ccc(-c4cnn(C)c4)cc2)CC3)n1 [I-138] has an EC50 of less than 10 nM.
Work on Cn1cc(-c2ccc(-c3c4c(nn3C)CCc3cnc(Nc5ccn(CC(=O)N6CCCC6)n5)nc3-4)cc2)cn1 [I-139] yielded an EC50 of less than 10 nM.
For COCCNC(=O)Cn1ccc(Nc2ncc3c(n2)-c2c(nn(C)c2-c2ccc(-c4cnn(C)c4)cc2)CC3)n1 [I-140], the EC50 was 10 to 100 nM.
COCCN(C)C(=O)Cn1ccc(Nc2ncc3c(n2)-c2c(nn(C)c2-c2ccc(-c4cnn(C)c4)cc2)CC3)n1 [I-141] showed an EC50 of less than 10 nM.
Work on CN(C)CCCNC(=O)Cn1ccc(Nc2ncc3c(n2)-c2c(nn(C)c2-c2ccc(-c4cnn(C)c4)cc2)CC3)n1 [I-142] yielded an EC50 of 10 to 100 nM.
Work on Cn1cc(-c2ccc(-c3c4c(nn3C)CCc3cnc(Nc5ccn(CC(=O)N6CCOCC6)n5)nc3-4)cc2)cn1 [I-144] yielded an EC50 of less than 10 nM.
Work on COc1cc(C(=O)NC2CCN(C)CC2)ccc1Nc1ncc2c(n1)-c1c(nn(C)c1Cc1cccc(-c3cnn(C)c3)c1)CC2 [I-145] yielded an EC50 of less than 10 nM.
In the case of COc1cc(C(=O)NCCN(C)C)ccc1Nc1ncc2c(n1)-c1c(nn(C)c1Cc1cccc(-c3cnn(C)c3)c1)CC2 [I-146], the EC50 is reported as less than 10 nM.
COCCN1CCC(NC(=O)c2ccc(Nc3ncc4c(n3)-c3c(nn(C)c3Cc3cccc(-c5cnn(C)c5)c3)CC4)c(OC)c2)CC1 [I-147] showed an EC50 of less than 10 nM.
Work on CNC(=O)c1ccc(Nc2ncc3c(n2)-c2c(nn(C)c2Cc2cccc(-c4cnn(C)c4)c2)CC3)c(OC)c1 [I-148] yielded an EC50 of less than 10 nM.
Compound COc1cc(C(=O)NCCCN(C)C)ccc1Nc1ncc2c(n1)-c1c(nn(C)c1Cc1cccc(-c3cnn(C)c3)c1)CC2 [I-149] has an EC50 of less than 10 nM.
COc1cc(C(=O)NCCN2CCN(C)CC2)ccc1Nc1ncc2c(n1)-c1c(nn(C)c1-c1ccc(-c3cnn(C)c3)cc1)CC2 [I-152] was tested, and the EC50 was less than 10 nM.
In the case of COc1cc(C(=O)NCCN2CCOCC2)ccc1Nc1ncc2c(n1)-c1c(nn(C)c1-c1ccc(-c3cnn(C)c3)cc1)CC2 [I-153], the EC50 is reported as less than 10 nM.
COCCCNC(=O)c1ccc(Nc2ncc3c(n2)-c2c(nn(C)c2-c2ccc(-c4cnn(C)c4)cc2)CC3)c(OC)c1 [I-154] gave an EC50 of less than 10 nM.
COc1cc(C(=O)N(C)CCN(C)C)ccc1Nc1ncc2c(n1)-c1c(nn(C)c1-c1ccc(-c3cnn(C)c3)cc1)CC2 [I-155] showed an EC50 of less than 10 nM.
CCNC(=O)c1ccc(Nc2ncc3c(n2)-c2c(nn(C)c2-c2ccc(-c4cnn(C)c4)cc2)CC3)c(OC)c1 [I-157] gave an EC50 of less than 10 nM.
CCCNC(=O)c1ccc(Nc2ncc3c(n2)-c2c(nn(C)c2-c2ccc(-c4cnn(C)c4)cc2)CC3)c(OC)c1 [I-158] showed an EC50 of less than 10 nM.
COc1cc(C(=O)NCC2CCN(C)CC2)ccc1Nc1ncc2c(n1)-c1c(nn(C)c1-c1ccc(-c3cnn(C)c3)cc1)CC2 [I-159] showed an EC50 of less than 10 nM.
For COc1cc(C(=O)N(C)C2CCN(C)CC2)ccc1Nc1ncc2c(n1)-c1c(nn(C)c1-c1ccc(-c3cnn(C)c3)cc1)CC2 [I-161], the EC50 was less than 10 nM.
